Each structure is given as a SMILES string.

This is an account of results in ChEMBL document CHEMBL5728057, “3-((hetero-)aryl)-8-amino-2-oxo-1,3-diaza-spiro-[4.5]-decane derivatives” (2020).

In this experiment the target is Nociceptin receptor (Homo sapiens, UniProt P41146). The experiment can be described thus: Human Nociceptin/Orphanin FQ Peptide (hNOP) Receptor Binding Assay: The hNOP receptor binding assay was performed as homogeneous SPA-assay (scintillation proximity assay) using the assay buffer 50 mM TRIS-HCl. 10 mM MgCl2. 1 mM EDTA (pH 7.4). The final assay volume (250 μl/well) included 0.5 nM of [leucyl-3H]nociceptin as ligand (PerkinElmer Life Sciences. Inc. Boston. Mass. USA). and either test. (In a scintillation proximity assay essentially only radioactivity close to the scintillant gives light.)

One may read the Ki as a dissociation constant, usually derived from enzyme kinetics or from competition with a known ligand. For the molecule `CN(C)[C@]1(c2ccccc2)CC[C@]2(CC1)CN(c1cnc(-c3cccc4c3CC(=O)N4)nc1)C(=O)N2`, affinity was put at a Ki of 2 nM.
